As a reminder, the inhibition is the drop in the measured response relative to a control, in per cent.

By UniProt entry, the sequences of proteins in these tests, tags left out.
UniProt Q4J6C6, whole entry: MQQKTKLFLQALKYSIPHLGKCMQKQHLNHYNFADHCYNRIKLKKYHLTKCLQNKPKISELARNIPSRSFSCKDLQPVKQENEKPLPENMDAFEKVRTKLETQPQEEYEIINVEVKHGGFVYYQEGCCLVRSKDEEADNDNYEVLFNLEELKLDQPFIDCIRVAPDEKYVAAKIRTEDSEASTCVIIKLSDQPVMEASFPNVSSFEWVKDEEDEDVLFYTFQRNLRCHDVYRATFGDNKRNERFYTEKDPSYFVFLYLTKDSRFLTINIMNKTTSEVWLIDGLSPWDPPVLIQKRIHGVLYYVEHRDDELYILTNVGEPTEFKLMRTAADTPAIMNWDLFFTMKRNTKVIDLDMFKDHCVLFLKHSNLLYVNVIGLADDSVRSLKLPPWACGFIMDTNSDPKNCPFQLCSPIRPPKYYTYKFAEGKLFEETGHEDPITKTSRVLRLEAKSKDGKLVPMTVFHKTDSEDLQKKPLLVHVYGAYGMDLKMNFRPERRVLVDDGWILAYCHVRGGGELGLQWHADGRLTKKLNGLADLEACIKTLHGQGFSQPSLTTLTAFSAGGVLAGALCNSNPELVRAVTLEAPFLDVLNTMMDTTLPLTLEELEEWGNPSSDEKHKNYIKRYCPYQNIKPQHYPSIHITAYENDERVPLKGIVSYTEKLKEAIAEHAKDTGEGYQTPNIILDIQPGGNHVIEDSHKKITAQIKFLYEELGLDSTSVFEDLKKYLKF

The list shows a part of the results, in another mix than the full data. Active and inactive are the calls of the source. Cut-off read from the data, not from the text of the source: active = inhibition above about 43%; inactive = the rest.

The assay deals with Prolyl endopeptidase-like (Homo sapiens) (UniProt Q4J6C6). Nature of the assay: human PREPL enzyme inhibitors, confirmation, biochemical, fluorescence polarization (AID 2803).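 Note: 0% = protein with DMSO and 100% = wells lacking protein.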 The conditions noted are these: recombinant PREPL, fluorescence polarization activity probe; at 5.96 µM; hits give high values. In general terms: Polarisation of emitted light reports the rotation of a fluorescent probe.
In the case of `CC1=NCCc2c1[nH]c1ccccc21.O=[N+]([O-])c1cc([N+](=O)[O-])c(O)c([N+](=O)[O-])c1`, the inhibition is inactive: 12.4%.

The values are drawn from PubChem BioAssay AID2803 (The Scripps Research Institute Molecular Screening Center, 2010).
